Converted amounts (≈) assume the structure as drawn.
Legend:
COX-2 = COX-2 (Mus musculus, UniProt Q05769); experiment: Evaluation of COX-2 activity: PGE2 formation in aspirin-treated, LPS-stimulated mouse peritoneal macrophages
COX-1 = COX-1 (Mus musculus, UniProt P22437); experiment: Evaluation of COX-1 activity: PGE2 formation in mouse peritoneal macrophages without aspirin and LPS treatment

Chains of the proteins cited; added tags and fusions are not shown. Residues count along the entry.
UniProt Q05769, 18-604 limits assumed: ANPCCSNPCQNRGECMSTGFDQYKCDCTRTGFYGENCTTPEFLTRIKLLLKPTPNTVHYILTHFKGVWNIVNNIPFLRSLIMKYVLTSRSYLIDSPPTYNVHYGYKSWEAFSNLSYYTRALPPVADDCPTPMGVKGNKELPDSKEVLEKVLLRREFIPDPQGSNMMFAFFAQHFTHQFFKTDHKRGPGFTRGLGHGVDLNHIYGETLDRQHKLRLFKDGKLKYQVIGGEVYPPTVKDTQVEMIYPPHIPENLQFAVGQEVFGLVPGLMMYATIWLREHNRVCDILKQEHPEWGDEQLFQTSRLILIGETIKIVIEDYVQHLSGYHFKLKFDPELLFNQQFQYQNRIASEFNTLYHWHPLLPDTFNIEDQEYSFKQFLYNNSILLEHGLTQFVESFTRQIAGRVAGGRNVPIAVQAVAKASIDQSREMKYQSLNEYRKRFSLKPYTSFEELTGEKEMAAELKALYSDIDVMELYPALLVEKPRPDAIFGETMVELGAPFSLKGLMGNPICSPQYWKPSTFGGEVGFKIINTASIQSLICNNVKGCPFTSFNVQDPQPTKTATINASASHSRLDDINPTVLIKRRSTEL
UniProt P22437, 27-602 limits assumed: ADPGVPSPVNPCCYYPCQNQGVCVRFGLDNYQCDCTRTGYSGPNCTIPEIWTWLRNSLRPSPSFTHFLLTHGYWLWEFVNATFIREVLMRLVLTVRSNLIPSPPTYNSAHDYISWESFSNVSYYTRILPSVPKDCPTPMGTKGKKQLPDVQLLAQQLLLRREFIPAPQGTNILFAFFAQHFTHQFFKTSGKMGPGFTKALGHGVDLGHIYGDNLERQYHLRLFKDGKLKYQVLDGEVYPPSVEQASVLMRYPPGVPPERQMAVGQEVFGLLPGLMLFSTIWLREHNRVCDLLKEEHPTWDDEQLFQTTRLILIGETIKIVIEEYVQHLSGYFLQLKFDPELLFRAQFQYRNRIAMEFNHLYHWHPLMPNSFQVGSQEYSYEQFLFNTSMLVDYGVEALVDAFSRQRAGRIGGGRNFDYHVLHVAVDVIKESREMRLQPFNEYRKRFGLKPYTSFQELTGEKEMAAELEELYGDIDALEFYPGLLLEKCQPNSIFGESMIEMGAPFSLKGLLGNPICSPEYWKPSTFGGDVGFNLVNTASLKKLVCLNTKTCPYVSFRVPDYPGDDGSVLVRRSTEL

SMILES: CC1(C)OC(c2ccc(S(C)(=O)=O)cc2)=C(c2ccc(C=O)o2)C1=O
- IC50, μg/ml COX-2 (COX-2): 0.3 µg/mL (≈ 0.832 µM)
- IC50, μg/ml COX-1 (COX-1): 50 µg/mL (≈ 139 µM)

Source: patent US6492416B1, “4,5-diaryl-3(2H)-furanone derivatives as cyclooxygenase-2 inhibitors” (Pacific Corporation, priority 1999, dated 2002)
